# Source: patent US12576081B2, “Methods and compositions for improving exercise performance, single ventricular performance, cardiac output and myocardial performance index (MPI) in single ventricular heart disease, using udenafil compositions” (MEZZION PHARMA CO., LTD., priority 2019, dated 2026)
# Tests used:
# Format in all cases: in vivo, human
# [1] = test system: adolescents with SVHD who had undergone Fontan palliation; assay: FUEL trial, cardiopulmonary exercise test (cycle ergometer ramp protocol), peak exercise and ventilatory anaerobic threshold; conditions: 87.5 mg twice daily, baseline to week 26; stated as size of decrease; p=0.011 vs placebo
# Procedure: The FUEL Trial was conducted at 30 centers around the world. The FUEL Trial was a Phase 3, randomized, double-blind, placebo-controlled trial of udenafil in adolescents with SVHD who had undergone Fontan palliation. (Funded by Mezzion Pharma Co. Ltd., and conducted by the National Heart, Lung, and Blood Institute-funded Pediatric Heart Network; ClinicalTrials.gov number NCT02741115).
# (§1) The primary aim was to determine the effect of udenafil on exercise capacity in adolescents with Fontan physiology over a six-month period. The primary outcome was the change in oxygen consumption at peak exercise (max or peak VO2) from baseline to the 26-week visit. […] Safety was monitored through adverse event reports, which were collected according to a pre-specified protocol of study coordinator outreach, and through ad hoc patient and family communication with members of the study team at each site.
# (§2) Baseline clinical testing completed before drug initiation included a blood draw to measure brain-type natriuretic peptide (BNP) level, a cardiopulmonary exercise test (CPET) using a standardized cycle ergometer ramp protocol, a standardized echocardiogram, and an assessment of peripheral vascular function using peripheral arterial tonometry (PAT) measured by finger cuff (EndoPAT; Itamar Medical, Israel). […]
# [2] = test system: adolescents with SVHD who had undergone Fontan palliation; assay: FUEL trial, echocardiographic myocardial performance index (blood pool Doppler); conditions: ITT population, baseline before drug
# Description: Generally speaking, MPI (also referred to as the Doppler-derived index or Tei Index) is a measure of ventricular systolic and diastolic function as determined by a focused echocardiogram. It combines systolic and diastolic time intervals to assess heart function. More specifically, MPI can be used to assess ventricular performance represented by a numeric value using cardiac time intervals. This numeric value equals the sum of isovolumetric contraction time (ICT) and isovolumetric relaxation time (IRT) divided by ejection time (ET) and can be determined for either the left or right ventricle. Pellett, A. A., et al.: The Tei Index: Methodology and Disease. State Values. Echocardiography. A Jrnl. of CV Ultrasound & Allied Tech. 21(7):669-672 (2004); and Ulugay, A., Tatli E.: Myocardial performance index. […] In the FUEL Trial, the MPI measured the performance of the single functioning ventricle. Thus, the MPI results from the FUEL Trial were determined by velocities obtained from blood pool Doppler assessment of the inflow and outflow tract of the functioning single ventricle. In other words, the FUEL Trial MPI was determined by measuring the cardiac time intervals using pulsed-wave Doppler velocity spectra of the ventricular inflow and outflow of the single functioning ventricle. […]
# [3] = test system: adolescents with SVHD who had undergone Fontan palliation; assay: FUEL trial, peripheral arterial tonometry (EndoPAT) reactive hyperemia index
# Description: as §1, with “visit. Secondary exercise outcomes included change in additional measures at maximal exertion, as well as change in measures of submaximal exercise at the ventilatory anaerobic threshold (VAT).” for “visit.”
# as §2
# [4] = test system: adolescents with SVHD who had undergone Fontan palliation; assay: FUEL trial, serum brain-type natriuretic peptide; conditions: p=0.18
compound,measurement,setting,value
"CCCOc1ccc(S(=O)(=O)NCCC2CCCN2C)cc1-c1nc2c(CCC)nn(C)c2c(=O)[nH]1 (centres unmarked) [Udenafil, udenafil]","VE/VCO2 at VAT, decrease (improved ventilatory efficiency)",[1],0.8
same,"Myocardial Performance Index (MPI), baseline, mean (SD)",[2],150: 0.45 (0.173)
same,"PAT-derived reactive hyperemia index, benefit over placebo (in words)",[3]; 26 weeks,relative improvement in the PAT-derived reactive hyperemia index was not seen; also recorded: did not reveal a benefit
same,"Log-transformed reactive hyperemia index, difference LS mean (SE)","[3]; udenafil vs placebo, change Week 26 − baseline, p 0.591",0.02 (0.030)
same,Change in log serum BNP level vs placebo (in words),[4],not different between groups

# Entries after “also recorded” stand apart in the source; their conditions may differ.
